{"sequences": {"note": "Amino acid sequences for entries named in this document (tags omitted).", "UniProt O95271, whole entry": "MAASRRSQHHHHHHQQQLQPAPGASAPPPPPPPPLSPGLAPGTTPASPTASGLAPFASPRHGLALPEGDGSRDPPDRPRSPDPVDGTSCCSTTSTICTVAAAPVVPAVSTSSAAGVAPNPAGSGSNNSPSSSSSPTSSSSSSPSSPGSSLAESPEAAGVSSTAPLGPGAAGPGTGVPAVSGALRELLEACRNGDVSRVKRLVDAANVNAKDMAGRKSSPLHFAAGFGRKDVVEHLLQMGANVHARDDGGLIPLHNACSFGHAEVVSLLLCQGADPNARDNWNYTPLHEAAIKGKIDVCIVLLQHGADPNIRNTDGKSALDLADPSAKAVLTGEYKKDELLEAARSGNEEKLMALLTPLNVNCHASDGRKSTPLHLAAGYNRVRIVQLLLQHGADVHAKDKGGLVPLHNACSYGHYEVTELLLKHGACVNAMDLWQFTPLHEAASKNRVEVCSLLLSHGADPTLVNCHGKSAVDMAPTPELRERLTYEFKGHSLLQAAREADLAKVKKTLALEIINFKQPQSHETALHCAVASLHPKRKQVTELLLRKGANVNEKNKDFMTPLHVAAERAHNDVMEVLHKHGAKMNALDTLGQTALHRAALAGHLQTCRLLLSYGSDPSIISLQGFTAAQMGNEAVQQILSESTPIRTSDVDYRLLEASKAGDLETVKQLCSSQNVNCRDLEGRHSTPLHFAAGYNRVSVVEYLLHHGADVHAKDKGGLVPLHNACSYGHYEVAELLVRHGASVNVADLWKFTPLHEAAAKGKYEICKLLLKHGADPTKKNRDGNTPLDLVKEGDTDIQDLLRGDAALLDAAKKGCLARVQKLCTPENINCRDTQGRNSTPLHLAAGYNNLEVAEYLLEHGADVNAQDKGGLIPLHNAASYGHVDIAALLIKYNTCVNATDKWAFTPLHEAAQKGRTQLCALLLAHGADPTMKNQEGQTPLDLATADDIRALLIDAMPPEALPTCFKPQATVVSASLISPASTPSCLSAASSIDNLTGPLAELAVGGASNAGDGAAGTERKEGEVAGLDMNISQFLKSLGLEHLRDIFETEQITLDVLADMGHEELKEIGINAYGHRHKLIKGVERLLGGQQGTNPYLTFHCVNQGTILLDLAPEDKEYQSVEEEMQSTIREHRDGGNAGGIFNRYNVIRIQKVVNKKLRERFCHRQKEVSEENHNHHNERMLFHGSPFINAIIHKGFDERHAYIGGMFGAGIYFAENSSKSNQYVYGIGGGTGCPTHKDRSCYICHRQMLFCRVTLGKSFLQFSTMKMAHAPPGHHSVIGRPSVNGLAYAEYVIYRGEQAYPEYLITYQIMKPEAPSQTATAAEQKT", "UniProt Q96SW2, whole entry partner": "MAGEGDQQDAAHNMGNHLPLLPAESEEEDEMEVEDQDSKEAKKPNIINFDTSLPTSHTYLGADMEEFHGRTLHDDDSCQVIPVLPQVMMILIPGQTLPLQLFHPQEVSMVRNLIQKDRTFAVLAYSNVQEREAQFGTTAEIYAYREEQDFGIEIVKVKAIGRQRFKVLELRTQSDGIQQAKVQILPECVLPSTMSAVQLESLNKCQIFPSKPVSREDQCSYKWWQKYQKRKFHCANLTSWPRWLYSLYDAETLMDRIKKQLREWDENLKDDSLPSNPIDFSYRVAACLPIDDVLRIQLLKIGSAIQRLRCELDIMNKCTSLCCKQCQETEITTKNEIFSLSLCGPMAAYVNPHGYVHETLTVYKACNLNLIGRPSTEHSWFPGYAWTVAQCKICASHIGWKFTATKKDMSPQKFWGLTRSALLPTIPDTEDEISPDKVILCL"}, "source": "paper doi:10.1101/2025.09.22.677768", "molecular_target": "TNKS1 (Homo sapiens, UniProt O95271)", "assay": "PROTAC degradation, NanoLuc assay in HAP1-TNKS1-NanoLuc cells; Western blot; blocked by IWR1, pomalidomide or MG132", "data": [{"smiles": "O=C1CCC(N2C(=O)c3cccc(NCCOCCOCCOCCOCc4cn(Cc5ccnc6c(NC(=O)c7ccc(N8C(=O)C9C%10C=CC(C%10)C9C8=O)cc7)cccc56)nn4)c3C2=O)C(=O)N1", "note": "(stereo not shown)", "values": [{"measurement": "DC50", "value": 60, "unit": "nM"}]}]}
